The target in this assay is T1, calcium channel (Oryctolagus cuniculus, UniProt P15381).
T1 construct: from tissue; host or cells: rabbit heart membrane preparation
Put plainly: Assay for Inhibition of Nitrendipine Binding (3H-nitrendipine, heart membranes). To be noted: 3H-nitrendipine displacement, rabbit heart membranes; Tables 1-5. Here is the method: Female, New Zealand white rabbits (1-2 kg) are sacrificed by cervical dislocation, and the heart is immediately removed, cleaned and chopped into small pieces. The tissue is homogenized in 5× times volume of 0.05M Hepes buffer, pH 7.4. The homogenate is centrifuged at 4000 g for 10 minutes, and the supernatant is re-centrifuged at 42,000×g for 90 minutes. The resulting membrane pellet is resuspended (0.7 ml/g weight) in 0.05M Hepes, pH 7.4 and stored at […] until used. Each tube of the binding assay contains ^3H-nitrendipine (0.05-0.50 nM), buffer, membranes (0.10 ml), and test compound in a total volume of 1.0 ml. After 90 minutes at 4° C., the bound nitrendipine is separated from the unbound by filtration on Whatman GF/C filters. After rinsing, the filters are dried and counted in a liquid scintillation counter.
Non-specific binding of ^3H-nitrendipine (that amount bound in the presence of excess unlabelled nitrendipine) is subtracted from the total bound to obtain specifically bound radiolabeled nitrendipine. The amount of specifically bound nitrendipine in the presence of a test compound is compared to that amount bound in the absence of a compound. A percent displacement (or inhibition) can then be calculated.

Chains of the proteins cited; added tags and fusions are not shown.
UniProt P15381, whole entry: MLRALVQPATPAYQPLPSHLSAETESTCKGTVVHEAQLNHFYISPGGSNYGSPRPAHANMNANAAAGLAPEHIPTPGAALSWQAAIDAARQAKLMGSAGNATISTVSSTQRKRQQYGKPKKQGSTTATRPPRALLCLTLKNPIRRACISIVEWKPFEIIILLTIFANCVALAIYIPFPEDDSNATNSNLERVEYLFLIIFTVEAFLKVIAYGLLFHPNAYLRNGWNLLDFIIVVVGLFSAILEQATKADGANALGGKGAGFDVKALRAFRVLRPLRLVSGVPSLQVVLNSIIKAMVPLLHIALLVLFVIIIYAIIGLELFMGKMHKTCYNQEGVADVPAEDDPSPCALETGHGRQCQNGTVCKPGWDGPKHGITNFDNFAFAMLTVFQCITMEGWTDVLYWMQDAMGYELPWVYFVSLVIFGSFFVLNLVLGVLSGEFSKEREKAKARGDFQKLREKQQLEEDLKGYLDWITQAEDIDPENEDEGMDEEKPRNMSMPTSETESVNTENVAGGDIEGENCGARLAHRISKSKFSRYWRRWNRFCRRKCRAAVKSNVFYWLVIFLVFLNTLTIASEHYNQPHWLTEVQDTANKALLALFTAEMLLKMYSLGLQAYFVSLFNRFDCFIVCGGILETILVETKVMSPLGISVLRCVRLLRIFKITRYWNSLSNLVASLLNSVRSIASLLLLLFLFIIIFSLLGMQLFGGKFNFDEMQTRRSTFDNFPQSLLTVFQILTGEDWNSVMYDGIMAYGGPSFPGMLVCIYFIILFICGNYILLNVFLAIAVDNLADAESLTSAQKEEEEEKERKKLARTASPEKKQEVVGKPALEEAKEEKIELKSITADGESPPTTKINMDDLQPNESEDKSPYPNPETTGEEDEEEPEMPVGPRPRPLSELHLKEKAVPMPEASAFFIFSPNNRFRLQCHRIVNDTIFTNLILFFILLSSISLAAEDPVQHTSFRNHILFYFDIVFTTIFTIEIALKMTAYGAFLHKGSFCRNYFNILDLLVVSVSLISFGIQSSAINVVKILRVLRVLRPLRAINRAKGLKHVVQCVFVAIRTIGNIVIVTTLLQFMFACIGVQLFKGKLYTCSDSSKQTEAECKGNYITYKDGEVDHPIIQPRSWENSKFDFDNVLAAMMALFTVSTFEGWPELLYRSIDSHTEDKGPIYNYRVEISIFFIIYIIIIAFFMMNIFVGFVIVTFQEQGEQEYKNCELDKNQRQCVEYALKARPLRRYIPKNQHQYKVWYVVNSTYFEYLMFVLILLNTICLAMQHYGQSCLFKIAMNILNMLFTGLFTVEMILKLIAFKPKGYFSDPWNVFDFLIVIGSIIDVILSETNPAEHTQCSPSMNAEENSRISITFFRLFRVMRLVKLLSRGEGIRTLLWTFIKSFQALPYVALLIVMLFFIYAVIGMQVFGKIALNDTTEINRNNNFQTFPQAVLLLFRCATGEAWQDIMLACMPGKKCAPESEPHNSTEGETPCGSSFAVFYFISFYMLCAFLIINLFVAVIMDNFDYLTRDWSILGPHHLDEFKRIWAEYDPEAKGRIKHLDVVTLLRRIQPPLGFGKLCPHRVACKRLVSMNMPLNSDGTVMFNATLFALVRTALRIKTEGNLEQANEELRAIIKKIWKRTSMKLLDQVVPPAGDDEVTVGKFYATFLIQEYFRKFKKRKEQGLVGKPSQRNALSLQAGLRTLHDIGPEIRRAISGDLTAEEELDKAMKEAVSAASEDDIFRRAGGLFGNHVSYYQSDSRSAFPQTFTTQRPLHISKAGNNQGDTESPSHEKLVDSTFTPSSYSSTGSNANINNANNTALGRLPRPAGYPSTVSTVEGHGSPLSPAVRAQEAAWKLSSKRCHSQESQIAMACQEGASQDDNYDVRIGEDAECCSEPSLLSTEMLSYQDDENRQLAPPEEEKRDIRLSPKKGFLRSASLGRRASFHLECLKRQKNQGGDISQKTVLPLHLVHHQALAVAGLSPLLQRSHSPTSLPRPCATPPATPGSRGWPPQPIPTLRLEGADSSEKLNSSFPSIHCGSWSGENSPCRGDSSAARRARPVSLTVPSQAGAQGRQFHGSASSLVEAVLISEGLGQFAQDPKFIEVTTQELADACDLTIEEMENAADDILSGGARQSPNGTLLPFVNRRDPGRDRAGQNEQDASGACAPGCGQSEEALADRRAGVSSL

For “5H-1,4-Dithiepino[6,5-b]pyridine-8-carboxylic acid, 9-(2-chloro-5-nitrophenyl)-2,3,6,9-tetrahydro-7-methyl-methyl ester 1,1,4,4-tetraoxide [Compound 12]”, the IC50 stood at 261 nM.
The figure for “2H,6H-1,5-Dithiocino[3,2-b]pyridine-9-carboxylic acid, 3,4,7,10-tetrahydro-8-methyl-10-(2-nitrophenyl)-2-[methyl(phenylmethyl)amino]ethyl ester 1,1,5,5-tetraoxide [Compound 30]” is 716 nM.

The term IC50 denotes the midpoint of a concentration-inhibition curve.

These data come from patent publication US20020026051A1, “Dithiepino [6,5-b]pyridines, and related compositions and methods” (priority 1999, published 2002).
